Measured values: patent US20240409614A1 (DANMARKS TEKNISKE UNIVERSITET, published 2024)
Residue numbers refer to the chain shown, from its start. Numbers in names are those of the source. One block for each binder: values may come before it.

Biological target: elastase (EnzChek Elastase Assay kit, Invitrogen)
Test: cell-based or functional assay

B2: A1AT-M351V/M358I after treatment with H2O2 (other)
chain: EDPQGDAAQKTDTSHHDQDHPTFNKITPNLAEFAFSLYRQLAHQSNSTNIFFSPVSIATAFAMLSLGTKADTHDEILEGLNFNLTEIPEAQIHEGFQELLRTLNQPDSQLQLTTGNGLFLSEGLKLVDKFLEDVKKLYHSEAFTVNFGDTEEAKKQINDYVEKGTQGKIVDLVKELDRDTVFALVNYIFFKGKWERPFEVKDTEEEDFHVDQVTTVKVPMMKRLGMFNIQHCKKLSSWVLLMKYLGNATAIFFLPDEGKLQHLENELTHDIITKFLENEDRRSASLHLPKLSITGTYDLKSVLGQLGITKVFSNGADLSGVTEEAPLKLSKAVHKAVLTIDEKGTEAAGAVFLEAIPISIPPEVKFNKPFVFLMIEQNTKSPLFMGKVVNPTQK
modifications: treated with 20 mM H2O2 for one hour at room temperature; oxidised residues not determined in the filing
IC50 after treatment with H2O2 (anti-elastase activity): 47.8 nM

B3: A1AT-M351V/M358I (other)
chain: B2 chain
IC50 before treatment with H2O2 (anti-elastase activity): 50.8 nM

B5: A1AT-M351I/M358V (other)
chain: B2 chain with V351I, I358V
IC50 before treatment with H2O2 (anti-elastase activity): 51.7 nM

B6: A1AT-M351I/M358V after treatment with H2O2 (other)
chain: B2 chain with V351I, I358V
modifications: treated with 20 mM H2O2 for one hour at room temperature; oxidised residues not determined in the filing
IC50 after treatment with H2O2 (anti-elastase activity): 54.2 nM

Now from value to binder:

IC50 before treatment with H2O2 (anti-elastase activity): 50.5 nM
B1: A1AT-M351V/M358V (other)
chain: B2 chain with I358V

IC50 after treatment with H2O2 (anti-elastase activity): 45.6 nM
B4: A1AT-M351V/M358V after treatment with H2O2 (other)
chain: B2 chain with I358V
modifications: treated with 20 mM H2O2 for one hour at room temperature; oxidised residues not determined in the filing
